Here are results for 1 molecule from PMC8817233 (Journal of medicinal chemistry, 2021).

The subject of this test is HEK293, SW480 and Wnt 3a-stimulated MDA-MB-468 cells. As to conditions: up to 25 μM, all three cell lines, 24 h.

Turning to `CC(C)(Oc1cccc(N2CCC[C@@H](C(=O)N(Cc3ccc(-c4cn[nH]c4)cc3)C3CC3)C2)c1)C(=O)N1CCNCC1.Cl` [ZW4864, (R)-N-(4-(1H-Pyrazol-4-yl)benzyl)-N-cyclopropyl-1-(3-((2-methyl-1-oxo-1-(piperazin-1-yl)propan-2-yl)oxy)phenyl)piperidine-3-carboxamide], the “FOPFlash luciferase inhibitory activity” value was “did not show obvious inhibitory activity”.
